This is a selection: effects in other tests are not listed, and their absence says nothing.
Target: DntR (Burkholderia sp. DNT, UniProt Q7WT50)
Assay: gfp reporter induction in E. coli, flow cytometry
Settings: 500 µM; inducer; M9 medium; 30 °C

By UniProt entry, the sequences of proteins in these tests, tags left out. Residues count along the entry.
UniProt Q7WT50, 1-301 limits assumed: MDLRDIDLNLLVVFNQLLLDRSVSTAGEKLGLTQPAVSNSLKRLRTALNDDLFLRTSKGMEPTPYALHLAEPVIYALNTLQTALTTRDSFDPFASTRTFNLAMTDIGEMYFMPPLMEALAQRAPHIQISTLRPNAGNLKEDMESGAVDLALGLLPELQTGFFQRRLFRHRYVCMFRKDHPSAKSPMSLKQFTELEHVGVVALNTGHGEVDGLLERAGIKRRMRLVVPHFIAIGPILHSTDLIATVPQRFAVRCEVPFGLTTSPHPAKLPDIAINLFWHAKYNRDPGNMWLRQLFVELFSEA

Cc1ccc([N+](=O)[O-])cc1[N+](=O)[O-]
DNT: 1.2±0.1 fold

Reference: PMC3261848
